This assay concerns b-tubulin in HL-60 cells. Briefly: in situ tubulin polymerization, immunoblot of soluble and particulate fractions. Format: cell-based, human. The following applies: HL-60, different concentrations, 5 h. The source says:
A simple in situ cellular assay as described by Giannakakou P., Gussio R., Nogales E., Downing K. H., Zaharevitz D., Bollbuck B., Poy G., Sackett D., Nicolaou K. C., Fojo T., Proc. Nat. Acad. Sci. (USA) (2000), 97, 2904-2909 was used in which the shift in tubulin from depolymerized to polymerized forms was followed by electrophoresis and Western blotting of centrifuged particulate and cytosolic fractions. To summarize, 2×10^6 untreated and drug-exposed HL-60 cells were lysed by exposure for 5 min at 37° C. to […] of hypotonic buffer (1 mM MgCl2, 2 mM EGTA, 1% Nonidet P-40, 2 mM phenylmethylsulfonyl fluoride, 1 mg/mL aprotinin, 2 mg/mL pepstatin, and 20 mM Tris-HCl, pH 6.8) and the particulate fraction separated from the soluble cytosolic fraction by high speed centrifugation for 10 min in a bench-top centrifuge. Samples labeled ‘0 min’ received drug immediately before collection of the cells. The processing of the cells to the critical centrifugation step required approximately 30 min. The pellet was dissolved in […] of sample buffer (8 M urea, 4% CHAPS, 3 M thiourea, and 40 mM DTT). Twenty mL of loading buffer was added to each […] sample, the samples were vortexed and then boiled for 5 min. […]
Background: In western blotting, separated proteins are transferred to a membrane and probed.

For `COc1cc2c(c(OC)c1OC)-c1ccc(OC)c(=O)cc1[C@@H](NC(C)=O)CC2` [Colchicine, colchicine, reference compound], the “effect on proportion of soluble to polymerized tubulin” value is “depolymerization of tubulin”.

The record behind these values is patent publication US6790862B2 (priority 1999, dated 2004).
